From paper PMC2866327, “Designed Inhibitors of Insulin-Degrading Enzyme Regulate the Catabolism and Activity of Insulin” (PLoS ONE, 2010) come the findings set out here.

This assay concerns the target insulin-degrading enzyme (recombinant human IDE) (human) (UniProt P14735). Kind of assay: enzyme inhibition assay (Ki); recombinant human IDE (nominal 1 nM); dose-response of the hydrolysis of IDE substrates (FRET1, SP1, FAβB, 125I-insulin, or insulin by HTRF); the substrate used for the Ki values in the text is not stated. (In general: Time-resolved FRET reads energy transfer from a long-lived donor to a nearby acceptor.)

B1: conventional peptide hydroxamate based on Phe-Arg-Trp-Glu, all L-amino acids (peptide)
peptide: FRWE
modifications: hydroxamic acid moiety attached to the N-terminus, positioned by the inclusion of an α carbonyl moiety; all L-amino acids
The term Ki denotes a measure of affinity in units of concentration, obtained from inhibition or displacement. For B1, the Ki is 110 nM.
